Results published in paper PMC10914727 (Nature Communications, 2024).
Where two headings read alike, the source gives them in different places.

By UniProt entry, the sequences of proteins in these tests, tags left out.
UniProt Q9WV18, whole entry: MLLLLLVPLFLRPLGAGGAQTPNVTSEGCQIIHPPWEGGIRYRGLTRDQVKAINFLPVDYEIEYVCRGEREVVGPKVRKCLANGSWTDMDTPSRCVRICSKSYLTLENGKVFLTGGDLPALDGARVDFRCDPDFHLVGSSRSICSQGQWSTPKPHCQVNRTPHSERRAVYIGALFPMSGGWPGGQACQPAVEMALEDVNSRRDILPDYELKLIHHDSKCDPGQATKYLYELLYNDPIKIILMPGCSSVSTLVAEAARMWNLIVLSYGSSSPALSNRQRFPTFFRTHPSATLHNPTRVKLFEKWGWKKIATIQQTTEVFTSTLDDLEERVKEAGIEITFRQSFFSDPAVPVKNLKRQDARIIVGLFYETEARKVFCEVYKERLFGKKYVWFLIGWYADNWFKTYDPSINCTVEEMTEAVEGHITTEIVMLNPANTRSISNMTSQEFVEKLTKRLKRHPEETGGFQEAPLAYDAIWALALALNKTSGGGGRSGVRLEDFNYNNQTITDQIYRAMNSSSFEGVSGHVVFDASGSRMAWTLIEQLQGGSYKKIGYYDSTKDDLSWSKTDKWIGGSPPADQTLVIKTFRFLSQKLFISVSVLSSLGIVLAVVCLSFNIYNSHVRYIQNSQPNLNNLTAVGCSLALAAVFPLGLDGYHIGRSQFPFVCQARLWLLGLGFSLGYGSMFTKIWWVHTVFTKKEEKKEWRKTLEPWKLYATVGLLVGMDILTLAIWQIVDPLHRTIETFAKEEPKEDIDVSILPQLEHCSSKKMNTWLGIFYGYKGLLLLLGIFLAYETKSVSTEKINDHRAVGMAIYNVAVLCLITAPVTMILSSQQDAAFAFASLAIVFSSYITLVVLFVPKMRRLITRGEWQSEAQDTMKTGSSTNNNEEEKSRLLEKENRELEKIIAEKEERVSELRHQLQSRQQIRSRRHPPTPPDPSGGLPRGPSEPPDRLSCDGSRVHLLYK

What was measured:
Test in all cases: cell-based
[1] = target: T1, endogenous GABAB receptor in cortical neurons (Mus musculus, UniProt Q9WV18); design: species or system primary cortical neurons; conditions: pEC50 cortical neurons
T1 construct: gene Gabbr1; native receptor, primary cortical neurons
Text: Sequence of the linker (L) before and after Nluc was indicated. […] The raw data and p-values are available in source data provided as a Source Data file.

[2] = target: T2, endogenous GABAB receptor in CGNs (Mus musculus, UniProt Q9WV18); design: species or system primary cerebellar granule neurons (CGNs); BRET G protein sensor (Galpha-Nluc / Venus-Ggamma2), agonist-induced change of BRET
T2 construct: gene Gabbr1; native receptor, primary cerebellar granule neurons
Text: We have further validated these G protein sensors by measuring the potency of different orthosteric GABAB receptor ligands (Fig. 3a) in both CGNs and HEK293 cells. […] Similar results were obtained in the hippocampal neurons and cortical neurons (Supplementary Fig. 4b–d and Supplementary Table 1). […] Dotted line is the correlation of pEC50 determined with HEK293 cells. […] Data are mean ± SEM from at least three biologically independent experiments each performed in triplicate and analysed using one-way ANOVA with a Dunnett’s post-hoc multiple comparison test to determine significance. […] The raw data and p-values are available in source data provided as a Source Data file. Fig. 1 Design and validation of the Gi/o protein sensors in neurons. a Scheme of the BRET-based sensors to detect the activity of the endogenous GPCR in neurons. b Scheme of the Gαi/o^Nluc and ^VenusGγ2 constructs co-transfected in the neurons. Sequence of the linker (L) before and after Nluc was indicated. […] The data are representative of BRET ratios from five independent experiments. e Representative fluorescent images of Venus and DAPI in CGNs transfected with GαoA^Nluc and ^VenusGγ2 or in HEK293 cells transfected with GαoA^Nluc, Gβ1 and ^VenusGγ2 from three independent experiments. […] The data are representative of the mean ± SEM of BRET ratios from three independent experiments. […]

[3] = target: T3, endogenous GABAB receptor in hippocampal neurons (Mus musculus, UniProt Q9WV18); design: species or system primary hippocampal neurons; BRET G protein sensor (Galpha-Nluc / Venus-Ggamma2), agonist-induced change of BRET; conditions: read-out: pEC50 hippocampal neurons (converted)
T3 construct: gene Gabbr1; native receptor, primary hippocampal neurons
Text: We have further validated these G protein sensors by measuring the potency of different orthosteric GABAB receptor ligands (Fig. 3a) in both CGNs and HEK293 cells. […] Similar results were obtained in the hippocampal neurons and cortical neurons (Supplementary Fig. 4b–d and Supplementary Table 1). […] Sequence of the linker (L) before and after Nluc was indicated. […] The data are representative of BRET ratios from five independent experiments. e Representative fluorescent images of Venus and DAPI in CGNs transfected with GαoA^Nluc and ^VenusGγ2 or in HEK293 cells transfected with GαoA^Nluc, Gβ1 and ^VenusGγ2 from three independent experiments. […] The data are representative of the mean ± SEM of BRET ratios from three independent experiments. The raw data and p-values are available in source data provided as a Source Data file.

- EC50 [1]: 4.17 µM
- EC50 ([2]; Gi1 sensor): 9.33 µM
- EC50 ([2]; GoA sensor): 8.51 µM
- EC50 ([3]; Gi1 sensor): 3.31 µM
- EC50 ([3]; GoA sensor): 7.08 µM
SMILES: NCCCC(=O)O [GABA]
